Reference: patent US6168776A (priority 1997, dated 2001)

Chains of the proteins cited; added tags and fusions are not shown. Residues count along the entry.
UniProt P05067, 681-714: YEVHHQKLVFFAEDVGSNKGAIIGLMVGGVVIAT

Legend:
PC-12 cells = assay: Protection from Aβ(25-35)-induced toxicity in PC-12 cells (MTT reduction); conditions: in words
[1] = Total [14C] Chrysamine G binding to control brain homogenates; set-up: species or system human
[2] = Tissue levels after i.v. injection of [14C] Chrysamine G in mice (blood-brain barrier); format: in vivo, Swiss-Webster mice; conditions: 15 min, highest of time points sampled
[3] = Total [14C] Chrysamine G binding to AD brain homogenates; set-up: species or system human
Aβ(10-43) = Aβ(10-43) (Homo sapiens, UniProt P05067); assay: Inhibition of [14C] Chrysamine G binding to Aβ(10-43); conditions: in words; vs Chrysamine G or, for Chrysamine G, vs Congo red

- total binding as a ratio to cerebellum (CBR) ([1]; Frontal Pole, Control (n = 6)): 0.87 ± .04
- total binding as a ratio to cerebellum (CBR) ([1]; Head of Caudate, Control (n = 4)): 0.95 ± .04
- total binding as a ratio to cerebellum (CBR) ([1]; Inferior Parietal, Control (n = 8)): 0.90 ± .08
- total binding as a ratio to cerebellum (CBR) ([1]; Occipital, Control (n = 8)): 0.77 ± .13
- total binding as a ratio to cerebellum (CBR) ([1]; Superior Temporal, Control (n = 8)): 0.86 ± .08
- total binding as a ratio to cerebellum (CBR) ([1]; Superior/Middle Frontal, Control (n = 8)): 0.73 ± .02
- brain/kidney ratio [2]: ~0.5
- total binding as a ratio to cerebellum (CBR) ([3]; Frontal Pole, AD (n = 10), p < 0.004): 1.87 ± .25
- total binding as a ratio to cerebellum (CBR) ([3]; Head of Caudate, AD (n = 7), p < 0.04): 1.76 ± .31
- total binding as a ratio to cerebellum (CBR) ([3]; Inferior Parietal, AD (n = 11), p < 0.003): 1.93 ± .20
- total binding as a ratio to cerebellum (CBR) ([3]; Occipital, AD (n = 11), p < 0.02): 1.44 ± .20
- total binding as a ratio to cerebellum (CBR) ([3]; Superior Temporal, AD (n = 11), p < 0.002): 1.63 ± .17
- total binding as a ratio to cerebellum (CBR) ([3]; Superior/Middle Frontal, AD (n = 11), p < 0.001): 1.84 ± .18
Compound: O=C(O)c1cc(N=Nc2ccc(-c3ccc(N=Nc4ccc(O)c(C(=O)O)c4)cc3)cc2)ccc1O [Chrysamine G, 4,4'-bis(3-carboxy-4-hydroxyphenylazo)-biphenyl]
- potency of protection relative to Congo red (PC-12 cells): more potent than Congo red
- overlap of binding ratio between control and AD samples ([3]; all brain areas except occipital cortex, AD samples >20 NPs/×200): no overlap between control and the AD samples
- overlap of binding ratio between control and AD samples ([3]; superior/middle frontal cortex): no overlap between control and any of the AD samples
- potency/affinity relative to reference compound (Aβ(10-43)): several fold greater than the affinity of Congo red
